For eight compounds, IC50 results are on record in patent US20100249093A1, “Substituted Heteroarylpiperidine Derivatives As Melanocortin-4 Receptor Modulators” (SANTHERA PHARMACEUTICALS (SCHWEIZ) AG, priority 2007, published 2010).

Protein sequences, listed by entry. Tags and fused reporters are not part of them.
UniProt P32245, whole entry: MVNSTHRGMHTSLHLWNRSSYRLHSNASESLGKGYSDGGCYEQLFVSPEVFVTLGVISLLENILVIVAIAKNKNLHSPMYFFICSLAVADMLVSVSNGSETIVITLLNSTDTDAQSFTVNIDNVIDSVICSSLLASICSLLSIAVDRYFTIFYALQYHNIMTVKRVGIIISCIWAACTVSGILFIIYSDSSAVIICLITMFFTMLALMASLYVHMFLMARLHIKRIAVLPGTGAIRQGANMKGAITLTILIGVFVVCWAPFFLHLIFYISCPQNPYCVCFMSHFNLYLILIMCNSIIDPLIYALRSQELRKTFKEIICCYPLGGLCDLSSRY

Where two headings read alike, the source gives them in different places.

This assay concerns the target human melanocortin-4 receptor (MC-4R) (Homo sapiens, UniProt P32245). In words: Membrane binding assay: competition with fluorescence labeled NDP-alpha-MSH, fluorescence polarization.
Setting [1] is: read-out: hMC-4R binding assay IC50, HEK293 cell membrane preparations expressing human MC-4R, tested form: 2 × HCl.
The mark [2] stands for this setting: read-out: hMC-4R binding assay IC50, HEK293 cell membrane preparations expressing human MC-4R, tested form: HCOOH.

Take `CC[C@H](COc1cccnc1C1CCN(C(=O)[C@@H](Cc2ccc(Cl)cc2Cl)NC(=O)N2CCCC2)CC1)N1CCCC1`: the IC50 under setting [1] was below 100 nM.

In the case of `CC[C@H](COc1cccnc1C1CCN(C(=O)[C@@H](Cc2ccc(Cl)cc2Cl)NC(=O)N2CC[C@@H]2CO)CC1)N(C)C`, the IC50 (read-out: hMC-4R binding assay IC50, HEK293 cell membrane preparations expressing human MC-4R) was below 100 nM.

As to `CC[C@H](COc1cc(C)cnc1C1CCN(C(=O)[C@@H](Cc2ccc(Cl)cc2F)NC(=O)N2CCCC2)CC1)N(C)C`, under setting [2], the IC50 was below 100 nM.

For the compound `CC[C@H](COc1cccnc1C1CCN(C(=O)[C@@H](Cc2ccc(C)cc2Cl)NC(=O)N2CCCC2)CC1)N1CCCC1`, the IC50 under setting [2] was below 100 nM. With `CC[C@H](COc1cccnc1C1CCN(C(=O)[C@@H](Cc2ccc(Cl)cc2C)NC(=O)N2CCCC2)CC1)N1CCCC1`, the IC50 under setting [2] was below 100 nM. The same measure, in the same setting: for `CN1CCC[C@H](Oc2cccnc2C2CCN(C(=O)[C@@H](Cc3ccc(Cl)cc3Cl)NC(=O)N3CC(O)C3)CC2)C1` the value was below 100 nM. Consider `CC[C@@H](CN1CCCC1)Oc1nc(C)ccc1C1CCN(C(=O)[C@@H](Cc2ccc(Cl)cc2Cl)NC(=O)N2CCCC2)CC1`, for which the IC50 (read-out: hMC-4R binding assay IC50, HEK293 cell membrane preparations expressing human MC-4R, tested form: 2 HCOOH) was below 100 nM. For `CC[C@H](COc1cccnc1C1CCN(C(=O)[C@@H](Cc2ccc(Cl)cc2Cl)NC(=O)N(C)CCOC)CC1)N(C)C`, the IC50 under setting [1] was below 100 nM.
